Test results from US20160083450A1, “HUMAN PROTEIN SCAFFOLD WITH CONTROLLED SERUM PHARMACOKINETICS” (THE REGENTS OF THE UNIVERSITY OF CALIFORNIA, priority 2009, published 2016).

What was measured:
[1] = system: 293 cells devoid of FcRn expression; assay: Control binding of Alexa Fluor 647 conjugated HSA to 293 cells devoid of FcRn expression; type: cell-based, human
Experimental: Dilutions of each fluorescent protein ranging from 0.316 to 3160 nM (in triplicates) were incubated with confluent 293 human embryonic kidney cells expressing human FcRn (Petkova et al., Int Immunol. 2006; 18:1759-1769) at pH 6.5 in a round bottom 96-well plate. […] Following a washing step with 1×PBS (pH 6.5), the cells were imaged by the Maestro™ In-Vivo Fluorescence Imaging System (CRi, Woburn, Mass.) using Deep Red (671-705 nm) excitation and Red (700 nm longpass) emission filters. Same size regions of interest (ROI) were drawn in each well and the fluorescent signal was measured and averaged for each dilution. A binding curve was generated with mean fluorescence as a function of Alexa-Fluor 647 conjugated DIII protein concentration. The DIII concentration at which 50% fluorescence was measured signified the DIII protein relative binding affinity for FcRn (see, FIG. 6).

[2] = design: species or system Balb/c mice; details: mouse, in vivo
Experimental: Their pharmacokinetic profile in blood was evaluated in vivo by injecting each ^131I-labeled DIII protein intravenously in Balb/c mice. Blood was drawn from the tail at eight different time points (0-72 h) and the radioactivity was counted in a gamma well counter. […] Selected DIII proteins will be used as scaffolds for grafting or chemically conjugating tumor targeting molecules (peptides, aptamers or small chemical moieties), as well as for directly for generation of combinatorial display libraries. Target specific scaffolds with suitable pharmacokinetics for diagnostic purposes may be used in imaging applications. Alternatively, potential anti-tumor drugs could be conjugated to the targeted scaffolds with optimal characteristics for therapy and utilized in cancer treatment.
This spectrum of circulation residence times allows for one to choose the DIII platform that can fit best the desired application (e.g. therapy, imaging).

Question: Which “Binding to 293 cells (devoid of FcRn)” value [1] does the source give for “HSA: Human serum albumin, entire protein; 67 kDa [reference compound]” here?
Answer: did not bind

Question: What about the “AUC (time integral of the blood uptake)” value [2] of the same substance?
Answer: 746 % ID/g × h

Question: What about the “Aα (amplitude)” value [2] of the same substance?
Answer: 26.88 % ID/g

Question: And the “Aβ (amplitude)” value [2]?
Answer: 27.49 % ID/g

Question: What about the k1 [2] of the same substance?
Answer: 0.454

Question: And the k2 [2]?
Answer: 0.04

Question: And the t1/2α [2]?
Answer: 1.52 h

Question: And the t1/2β [2]?
Answer: 17.3 h
